In US9096594B2 (dated 2015):

Columns and labels:
[1] = target: CDK2/CycE1 (Homo sapiens (Human), UniProt P24941); experiment: Carna Biosciences kinase assay, CDK2/CycE1; type: biochemical; conditions: read-out: IC50 μM, CDK2/CycE1; dose response
[2] = target: CDK2/CycA2 (Homo sapiens (Human), UniProt P24941); experiment: Carna Biosciences kinase assay, CDK2/CycA2; type: biochemical; conditions: read-out: IC50 μM, CDK2/CycA2; dose response

How did the IC50 [1] turn out when `COc1ccccc1[C@@H]1C2=C(CC(C)(C)CC2=O)Nc2n[nH]c(C)c21` [Compound 22] was run?
The IC50 was 2.2 µM.

And the IC50 [2]?
The IC50 was 1.5 µM.
